Values joined by “and” are separate entries in the source; they are usually repeats but may differ in a detail not shown here. Equal entries are not always repeated.
Experiments:
immature rat = assay: Induction of ovulation in immature rat using metastin derivatives; format: in vivo, rats
Experimental: (§1) Equine chorionic gonadotropin (eCG, serotropin, Dainippon Pharmaceutical Co., Ltd.) was dissolved in saline (Otsuka Pharmaceutical Co., Ltd.) in a concentration of 100 IU/mL. Using a 1 mL tuberculin syringe with a 26-gauge needle (both by Terumo Co., Ltd.), eCG was subcutaneously injected into the dorsal area of female Wistar rats of 23 days old after birth (Charles River Japan, Inc.) in a dose of 10 IU/animal, during 9:00 to 10:00 AM. As shown below, the animal was grouped 47 to 48 hours after the eCG injection and the drugs were given to these groups, respectively.
(§2) Group A (5 rats): Human chorionic gonadotropin (hCG, gonadotropin, Dainippon Pharmaceutical Co., Ltd.) was dissolved in saline at 100 IU/mL and the solution was subcutaneously injected into the back in a dose of 20 IU/animal.
Group B (5 rats): Compound No. 305 was dissolved in saline at 33.3 nmol/mL and the solution was subcutaneously injected into the back in a dose of 6.7 nmol/animal.
Group C (5 rats): Compound No. 305 was dissolved in saline at 10.0 nmol/mL and the solution was subcutaneously injected into the back in a dose of 2.0 nmol/animal.
Group D (5 rats): Compound No. 322 was dissolved in saline at 33.3 nmol/mL and the solution was subcutaneously injected into the back in a dose of 6.7 nmol/animal.
Group E (5 rats): Compound No. 322 was dissolved in saline at 10.0 nmol/mL and the solution was subcutaneously injected into the back in a dose of 2.0 nmol/animal.
Group F (6 rats): Saline was subcutaneously injected into the back in a dose of 200 μL/animal.
After administration of these drugs, the animal was sacrificed by decapitation after 24 to 25 hours to recover blood, bilateral oviducts and uterus. […]
The number of oocytes was counted by referring to the method described in Eur. J. Endocrinol., 138, 594-600 (1998). […] After granulosa cells surrounding the oocytes were removed by trypsin treatment, the number of oocytes was counted. […]

immature rats = assay: Induction of ovulation by human metastin in immature rats; format: in vivo
Experimental: as §1, with “9:30” for “9:00”, “injected” for “given”
as §2
Group D (6 rats): Saline was subcutaneously injected into the back in a dose of 200 μL/animal.
After administration of the drugs described above, the animal was sacrificed by decapitation after 24 to 25 hours to recover blood, bilateral oviducts and uterus. In collecting the blood, 90 μL of 10 KIU/mL aprotinin solution (Trasylol, Bayer) containing 3 mg/ml EDTA had been previously filled in a tube for recovery to prevent blood clotting. After blood recovery, the blood was thoroughly blended and the mixture was centrifuged at 2,000 G for 25 minutes. The supernatant was recovered and used as a plasma sample.
The number of oocytes was counted as follows.
Where retained oocytes in the oviducal ampulla were confirmed by stereomicroscopic observation of the oviduct, the ampulla was punctured with a 27-gauge syringe needle (Terumo) to retrieve the oocytes. After granulosa cells surrounding the oocytes were removed by trypsin treatment, the number of oocytes was counted. Where the retained oocytes in the oviducal ampulla were not confirmed by stereomicroscopic observation of the oviduct, a 27-gauge syringe needle with the polished tip was inserted into the tubal ostium and more than 400 μL of saline was flushed into the oviduct and uterine for rinsing. Then, the presence or absence of oocytes in the effluent was observed.
The level of estradiol contained in the plasma collected from the rats shown in TABLE 22 was determined by radioimmunoassay (DPC-Estradiol Kit; Diagnostic Products Corporation).
The level of progesterone contained in plasma was determined by radioimmunoassay (DPC.Progesterone; Diagnostic Products Corporation).

[1] = Group A: eCG-primed immature female rats, 20 IU/animal s.c.

Substance: hCG: Human chorionic gonadotropin (hCG, gonadotropin, Dainippon Pharmaceutical Co., Ltd.), reference ovulation inducer
- level of estradiol contained in plasma (immature rat; Group A: 20 IU/animal s.c. (FIG. 21)): no difference
- level of progesterone in blood (immature rat; Group A: 20 IU/animal s.c. (FIG. 22)): highest
- number of oocytes in average per rat (immature rat; [1]): 38.0 oocytes
- level of estradiol contained in plasma (immature rats; Group A: 20 IU/animal s.c. (FIG. 12)): no difference in the level of estradiol
- level of progesterone contained in plasma (immature rats; Group A: 20 IU/animal s.c. (FIG. 13)): highest
- number of oocytes in average per rat (immature rats; [1]): 37.6 oocytes
- Number of oocytes, individual rats 1 to 5 (immature rats; Group A: hCG 20 IU/animal subcutaneously, immature rats): 36 and 35 (2×) and 40 and 42
- Average number of ova (immature rats; Group A: hCG 20 IU/animal subcutaneously, immature rats, 24 to 25 hours after administration): 37.6

Source: patent US8361968B2 (Takeda Pharmaceutical Company Limited, priority 2002, dated 2013)
